# Binding of CDR-mutated scFvs to a peptide of the spike HR2 region

Source: Li et al. 2023 (doi:10.1038/s41467-023-39022-2), MIT Lincoln Laboratory and A-Alpha Bio; data file from the FLAb repository.

Target: peptide PDVDLGDISGINAS, taken from heptad repeat 2 (HR2) of SARS-CoV-2 spike.

Ab-14 is the parent antibody, in scFv form: VH, then a (GGGGS)3 linker, then VL. The light chain is unchanged in all variants.
VH: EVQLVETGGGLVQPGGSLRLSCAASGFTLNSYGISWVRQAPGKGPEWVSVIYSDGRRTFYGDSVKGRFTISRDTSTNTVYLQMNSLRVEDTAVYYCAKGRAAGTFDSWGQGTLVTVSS
VL: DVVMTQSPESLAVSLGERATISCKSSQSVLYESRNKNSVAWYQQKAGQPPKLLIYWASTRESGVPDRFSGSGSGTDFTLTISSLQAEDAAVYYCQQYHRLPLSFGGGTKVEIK

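The parent was found by panning a naive human phage display library on the peptide. The variants were designed computationally from a first round of random CDR variants and then made and measured. Several design methods are mixed in this list. In AlphaSeq, yeast of one mating type display the scFv and yeast of the other type display the target. The frequency of each diploid, read from paired DNA barcodes, reflects how well the two displayed proteins bind. The ratio of observed to expected reads was calibrated, replicate by replicate, on BCL2-family standards whose Kd was known from biolayer interferometry. There are six technical replicates.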

The parent's heavy chain CDRs are GFTLNSYGIS, VIYSDGRRTFYGDSVK, GRAAGTFDS; each variant's own CDRs replace them letter for letter. This list holds designs with more than six substitutions. Each Kd is an estimate from the mating assay, the geometric mean of the replicates in which the pair was seen; lower is stronger. "nd" marks a missing value. The strain was present, yet no cells mated with the target were sequenced in any replicate, which points to weak or no binding. Empty control strains, which show no peptide, gave a signal in 1% of pairings with all heavy chain designs; the median was 120 nM and 95% of these signals were weaker than 7.0 nM. No background was subtracted.

| CDR-H1 | CDR-H2 | CDR-H3 | apparent Kd | detected |
|---|---|---|---|---|
| GFDLKEYGIS | VIYADGVREQYAHSVK | GTYSGKFGM | nd | 0 of 6 |
| GVDIDEYGIS | VIYADGIRTFYIDKVK | GNLGGQFDM | nd | 0 of 6 |
| GFDLNEYGIS | VIYADGKRTVYADSVK | GGNAGTFDV | 340 pM | 6 of 6 |
| GFDLNEYGIS | VIYADGMRTYYSDSVK | GQNAGTFDV | 400 pM | 6 of 6 |
| GFDLNEYGIS | VIYADGRRTAYSDSVK | GEIAGTFDV | 150 pM | 6 of 6 |
| GFDLEEYGIS | VIYADGQRFAYAQDFK | GEAAGAFDL | 23 nM | 4 of 6 |
| GFGLEEFGIS | VIYADGSRRAYAQDVK | GGTAGHFVV | nd | 0 of 6 |
| GFDLDEYGIS | VIYADGKRTAYADSVK | GQNAGTFDL | 440 pM | 6 of 6 |
| GFDLSEYGIS | VIYADGRRTFYTDSVK | GEVAGTFDV | 310 pM | 6 of 6 |
| GNDLEEYGIS | VIYADGIRTNYSQNVK | GTNGDTFTQ | nd | 0 of 6 |
| GFDLNEYGIS | VIYADGKRTYYADSVK | GNVAGTFDL | 1.1 nM | 6 of 6 |
| GFEIDEYGIS | VIYADGLRYHYANSVK | GEMAGTFTT | 88 nM | 3 of 6 |
| GFDLNEYGIS | VIYADGRRTFYTDSVK | GQVAGTFNV | 150 pM | 6 of 6 |
| GFDLNEYGIS | VIYADGRRTAYADNVK | GEVAGTFDL | 100 pM | 6 of 6 |
| GFDLNEYGIS | VIYADGRRTFYADSVK | GKVAGTFNS | 790 pM | 6 of 6 |
| GFDLNEYGIS | VIYADGVRTAYTDSVK | GQNAGTFDV | 260 pM | 6 of 6 |
| GFDLNEYGIS | VIYADGVRTFYADSVK | GEIAGTFDQ | 300 pM | 6 of 6 |
| GFDLNEYGIS | VIYADGRRTFYSDKVK | GNFAGTFDI | 730 pM | 6 of 6 |
| GFNLDEYGIS | VIYADGQRVSYDDPVK | GEQAGTVMV | nd | 0 of 6 |
| GFDLNEYGIS | VIYADGRRTFYADDVK | GENAGTFDL | 810 pM | 6 of 6 |
| GEQLNEYGIS | VIYADGRRTAYSQSVK | GLNGGIIDV | 38 nM | 1 of 6 |
| GMDLNEYGIS | VIYADGRRTAYINQVK | GSNSDTVSS | nd | 0 of 6 |
| GFSLDEYGIS | VIYADGMRTAYTADVK | GGKSEDVVT | nd | 0 of 6 |
| GFDLNEYGIS | VIYADGKRKAYADSVK | GEVAGTFDV | 220 pM | 6 of 6 |
| GFDLDEYGIS | VIYADGRRTAYSDSVK | GEVAGTFDL | 320 pM | 6 of 6 |
| GFDLNEYGIS | VIYADGKRTAYVDDVK | GNVAGTFDT | 320 pM | 6 of 6 |
| GFDLNEYGIS | VIYADGRRTFYADSVK | GEVAGTFVQ | 620 pM | 6 of 6 |
| GKDLQEYGVS | VIYADGMRASYADSVK | GNHAGYLDK | nd | 0 of 6 |
| GFDLNEYGIS | VIYADGRRTFYSDSVK | GTTGGTFDI | 630 pM | 6 of 6 |
| GFDLDEYGIS | VIYADGQRTAYADSVK | GNVAGTFDQ | 280 pM | 6 of 6 |
| GFELTEYGIS | VIYADGHRSFVTDTVK | GQQAGAFNV | 58 nM | 3 of 6 |
| GFDLNEYGIS | VIYADGQRTFYADSVK | GEVAGTFVL | 250 pM | 6 of 6 |
| GFDLNEYGIS | VIYADGRRTFYTDSVK | GENAGTFDI | 270 pM | 6 of 6 |
| GFDLNEYGIS | VIYADGMRTAYADSVK | GANAGTFDQ | 200 pM | 6 of 6 |
| GFDLDEYGIS | VIYADGMRTFYADSVK | GNTAGTFDS | 500 pM | 6 of 6 |
| GFDLDEYGIS | VIYADGMRTFYADSVK | GNIAGTFDT | 870 pM | 6 of 6 |
| GFDIEEYGIS | VIYADGVRTMYADDVK | GNSKNYSLM | 1.5 µM | 1 of 6 |
| GFDLDEYGIS | VIYADGRRTFYADSVK | GENAGTFDS | 190 pM | 6 of 6 |
| GFDLNEYGIS | VIYADGSRTAYADSVK | GNVAGTFDQ | 350 pM | 6 of 6 |
| GFDLNEYGIS | VIYADGMRTAYADSVK | GENAGTFDM | nd | 0 of 6 |
| GFDLNEYGIS | VIYADGMRTFYADNVK | GNVAGTFDQ | 4.2 nM | 6 of 6 |
| GFDLDEYGIS | VIYADGMRTAYTDSVK | GENAGTFDV | 1.6 nM | 4 of 6 |
| GFKLDEYGIS | VIYADGSRTEYVQSVK | GDTSVIKFV | 24 nM | 4 of 6 |
| GFNLGEYGIS | VIYADGTRKGYANSVK | GAVGGFYLD | nd | 0 of 6 |
| GFDLNEYGIS | VIYADGVRTQYIDSVK | GNEAGTFDS | 1.3 nM | 6 of 6 |
| GFDLNEYGIS | VIYADGMRTAYAESVK | GENAGTFDL | 600 pM | 6 of 6 |
| GFKIDEYGIS | VIYADGMRAHYSDAVK | GVHGFNVVM | nd | 0 of 6 |
| GFNLNEYGIS | VIYADGRRTFYADSVK | GQTAGTFIV | nd | 0 of 6 |
| GFDLNEYGIS | VIYADGVRTFYSDSVK | GEVAGTFDV | 490 pM | 6 of 6 |
| GKSLMEYGIS | VIYADGRRTAYTDSFK | GGSNADTFV | nd | 0 of 6 |
| GFGLQEYGIS | VIYADGLRSMYANSVK | GNSDGMVLV | nd | 0 of 6 |
| GFDLNEYGIS | VIYADGMRTAYADDVK | GNVAGTFDE | 290 pM | 6 of 6 |
| GFDLDEYGIS | VIYADGMRKAYADSVK | GEVAGTFDV | 13 nM | 4 of 6 |
| GFDLNEYGIS | VIYADGRRTFYADSVK | GQNAGTFTV | 810 pM | 6 of 6 |
| GFSLDEYGIS | VIYADGRRTFYADSVK | GNTAGTFDS | 410 pM | 6 of 6 |
| GDGLDEYGIS | VIYADGQRKFYADNVK | GVFGSLGQV | nd | 0 of 6 |
| GFDLDEYGIS | VIYADGRRTAYADSVK | GEVAGTFDL | 830 pM | 6 of 6 |
| GFDLGEYGIS | VIYADGRRKAYSDAVK | GINVIGKTV | nd | 0 of 6 |
| GFDLNEYGIS | VIYADGMRTAYTDSVK | GSNAGTFDM | 1.2 nM | 6 of 6 |
| GFEIEEYGIS | VIYADGQRSSYADNVK | GKVDTVVMY | nd | 0 of 6 |
| GFDLDEYGIS | VIYADGKRTFYQDSVK | GNVAGTFDS | 690 pM | 6 of 6 |
| GFDLDEYGIS | VIYADGKRTAYADSVK | GETAGTFDQ | 500 pM | 6 of 6 |
| GFDLEEYGIS | VIYADGKRTAYADSVK | GNVAGTFDT | 390 pM | 6 of 6 |
| GMDLSEYGIS | VIYADGMRTYASDSVK | GDQGGNLLY | nd | 0 of 6 |
| GFDLNEYGIS | VIYADGMRTAYADSVK | GETAGTFDV | 630 pM | 6 of 6 |
| GFDLNEYGIS | VIYADGKRTYYADSVK | GENAGTFDL | 300 pM | 6 of 6 |
| GFDLNEYGIS | VIYADGQRTAYADNVK | GETAGTFDL | 460 pM | 6 of 6 |
| GFDLEEYGIS | VIYADGMRTAYADSVK | GTNAGTFDV | 15 nM | 6 of 6 |
| GFDLNEYGIS | VIYADGQRTAYADSVK | GNTAGTFDQ | 24 nM | 6 of 6 |
| GYDLNEYGIS | VIYADGRRAAYIDDVK | GNVNDHVAV | nd | 0 of 6 |
| GFDIDEYGIS | VIYADGQRKAYTENVK | GRSGGMTVA | nd | 0 of 6 |
| EFDLNEYGIS | VIYADGHRTFYAEHVK | GTNSGVFDT | 140 nM | 1 of 6 |
| GFDLDEYGIS | VIYADGSRTAYADSVK | GNNAGTFDL | 480 pM | 6 of 6 |
| GFDIEEYGIS | VIYADGIRQAYKDKFK | GWNDGTFSV | 51 nM | 1 of 6 |
| GFDLNEYGIS | VIYADGRRTFYADSVK | GTIAGTFDQ | 57 pM | 6 of 6 |
| GFDLDEYGIS | VIYADGVRTAYADSVK | GNVAGTFDI | 720 pM | 6 of 6 |
| GFDLDEYGIS | VIYADGQRTAYADSVK | GEVAGTFDL | 45 pM | 3 of 6 |
| GQDINEYGIS | VIYADGMRKAYVQQVK | GQNLGDVEV | nd | 0 of 6 |

Extract of 8 entries:

{"CDR-H1": "GKSLMEYGIS", "CDR-H2": "VIYADGRRTAYTDSFK", "CDR-H3": "GGSNADTFV", "apparent Kd": "nd", "detected": "0 of 6"}
{"CDR-H1": "GFNLGEYGIS", "CDR-H2": "VIYADGTRKGYANSVK", "CDR-H3": "GAVGGFYLD", "apparent Kd": "nd", "detected": "0 of 6"}
{"CDR-H1": "GFDLDEYGIS", "CDR-H2": "VIYADGKRTAYADSVK", "CDR-H3": "GQNAGTFDL", "apparent Kd": "440 pM", "detected": "6 of 6"}
{"CDR-H1": "GFDLNEYGIS", "CDR-H2": "VIYADGRRTFYADSVK", "CDR-H3": "GTIAGTFDQ", "apparent Kd": "57 pM", "detected": "6 of 6"}
{"CDR-H1": "GFDIEEYGIS", "CDR-H2": "VIYADGVRTMYADDVK", "CDR-H3": "GNSKNYSLM", "apparent Kd": "1.5 µM", "detected": "1 of 6"}
{"CDR-H1": "GFDLDEYGIS", "CDR-H2": "VIYADGSRTAYADSVK", "CDR-H3": "GNNAGTFDL", "apparent Kd": "480 pM", "detected": "6 of 6"}
{"CDR-H1": "GFDLDEYGIS", "CDR-H2": "VIYADGQRTAYADSVK", "CDR-H3": "GEVAGTFDL", "apparent Kd": "45 pM", "detected": "3 of 6"}
{"CDR-H1": "GFDLNEYGIS", "CDR-H2": "VIYADGMRTAYADSVK", "CDR-H3": "GANAGTFDQ", "apparent Kd": "200 pM", "detected": "6 of 6"}

Values of this round are not directly comparable with the first-round values of the same sequences. Of ten entries with the parent sequence, four were seen in most replicates (averages 2.2 nM to 240 nM), three in one and three in none, so single entries are noisy. The authors' rule: three or more of the six replicates give a measured affinity, fewer mean a poor binder.